As a reminder, the inhibition is the relative decrease from the control value, in per cent.

The list shows a part of the results, in another mix than the full data. Some salts or complexes appear as unconnected parts, following the source record. Calls of active or inactive are those of the source.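 The calls were made as follows: active = pattern-corrected inhibition of lipid staining of at least 50% with the nuclear-stain viability signal not falling by more than 50%; inactive = the rest, inconclusive results apart.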

A short description of this assay: inhibitors of triacylglycerol accumulation, primary screen, cell-based, uHTS, fluorescence, H9c2 (AID 651582).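 Also: 0% = DMSO wells and 100% = triacsin C control wells.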 The following applies: H9c2 cells, Nile Red lipid (TAG) fluorescence; at 12.5 µM; stronger effect = higher value; cells loaded with 200 µM oleic acid.
Consider `CN(CCCl)Cc1cc(Cl)c(NC2=NCCN2)c(Cl)c1`, for which the inhibition is inactive: 6.86%.

`O=P1(N(CCCl)CCCl)NCCC(C(F)(F)F)O1` (configuration not stated): the inhibition was inactive: 4.16%.

Consider `Clc1n[nH]nc1-c1nn[nH][15n]1`, for which the inhibition is inactive: 1.33%.

With `CC(C)(C)C(=O)NC(Sc1ncccn1)C(Cl)(Cl)Cl` (configuration not stated), the inhibition was inactive: 7.08%.

As for `O=[N+]([O-])c1cc([N+](=O)[O-])c(-c2cnn(-c3ccccc3)c2)c([N+](=O)[O-])c1`, the inhibition was inactive: 30.9%.

With `COc1ccccc1CNC(=O)COC(=O)C(O)(c1ccccc1)c1ccccc1`, the inhibition was inactive: 1.85%.

As to `CC(C)/C=N\N=C(\N)N[N+](=O)[O-]`, the inhibition is inactive: -4.16%.

Consider `CN(C(=O)Cc1ccc(Cl)c(Cl)c1)[C@@H]1CCCC[C@H]1N1CCCC1`, for which the inhibition was inactive: -3.08%.

Consider `Cc1nc2ccc3ccccc3c2s1.O=[N+]([O-])c1cc([N+](=O)[O-])c(O)c([N+](=O)[O-])c1`, for which the inhibition is inactive: 9.31%.

On to `CC1(CBr)Cn2c(nc3ccccc3c2=O)S1` (configuration not stated), for which the inhibition was inactive: 0.2%.

On to `O=C(OC1CN2CCC1CC2)c1ccc(Cl)cc1` (configuration not stated), for which the inhibition was inactive: 37.8%.

For the compound `COc1cc(C(=O)NCC2(N3CCOCC3)CCCCC2)cc(Cl)c1OC(C)C`, the inhibition was inactive: -1.65%.

With `O=[As](O)(O)c1cccnc1`, the inhibition is inactive: -1.23%.

Consider `COc1ccccc1OP(C)(=O)Nc1cccc(Br)c1` (configuration not stated), for which the inhibition was inactive: -13.7%.

In the case of `O=[As](O)(c1cccc(O)c1)c1cccc(O)c1`, the inhibition was inactive: 8.41%.

As to `Cc1cccc(OCC(=O)OC2CN3CCC2CC3)c1` (configuration not stated), the inhibition was inactive: 8.26%.

Consider `CP(=O)(Nc1cccc(Br)c1)Oc1ccccc1` (configuration not stated), for which the inhibition was inactive: -22.6%.

For `Cc1ccc(NCCc2c([N+](=O)[O-])cc([N+](=O)[O-])cc2[N+](=O)[O-])cc1`, the inhibition is inactive: 11.9%.

For `Cc1ccc(C)c(NP(C)(=O)Oc2ccccc2)c1` (configuration not stated), the inhibition was inactive: -61%.

For the compound `O=C(O)c1cccc(Nc2c([N+](=O)[O-])cc([N+](=O)[O-])cc2[N+](=O)[O-])c1`, the inhibition is inactive: -0.764%.

On to `O=P(Nc1nccs1)(Oc1ccccc1)Oc1ccccc1`, for which the inhibition is inactive: -22.5%.

Consider `CS(=O)(=O)c1cc([N+](=O)[O-])c2no[n+]([O-])c2c1`, for which the inhibition was inactive: 6.63%.

For the compound `Nc1ccccc1[As](=O)(O)c1ccccc1`, the inhibition is inactive: 2.07%.

`NC(=O)Nc1ccc([As](=O)(O)O)cc1`: the inhibition was inactive: -5.51%.

As for `N#CCCN(C(=O)COC(=O)C(O)(c1ccccc1)c1ccccc1)c1ccc(F)cc1`, the inhibition was inactive: 10.9%.

Turning to `CN(C(=O)Cc1ccccc1)[C@@H]1CC[C@]2(CCCO2)C[C@H]1N1CCCC1`, the inhibition is inactive: -11.2%.

As to `CN(C(=O)Cc1ccc(Cl)c(Cl)c1)[C@H]1CC[C@@]2(CCCO2)C[C@@H]1N1CCCC1`, the inhibition was inactive: 5.36%.

Turning to `CC1=NCCc2c1[nH]c1ccccc21.O=[N+]([O-])c1cc([N+](=O)[O-])c(O)c([N+](=O)[O-])c1`, the inhibition was inactive: 5.61%.

Consider `Cc1ccc(NP(=O)(Oc2cccc(C)c2)Oc2cccc(C)c2)nc1`, for which the inhibition is inactive: -18.9%.

Turning to `CCNC(=S)/N=C(\N)N[N+](=O)[O-]`, the inhibition is inactive: -2.01%.

Turning to `COc1ccc(OP(C)(=O)Nc2ccc(SC(F)(F)F)cc2)cc1` (configuration not stated), the inhibition is inactive: 0.641%.

Consider `O=P1(N(CCCl)CCCl)OCCC2CCCCN21` (configuration not stated), for which the inhibition is inactive: 4.37%.

As for `CCN(CC)CCCOC(=O)C(O)(c1ccccc1)C1CCCCC1` (configuration not stated), the inhibition was inactive: -4.55%.

With `CCC(=O)N1C2C3N(C(=O)CC)C1C1N(C(=O)CC)C(C(N1C(=O)CC)N3C(=O)CC)N2C(=O)CC`, the inhibition was inactive: -13.4%.

In the case of `Cc1c([N+](=O)[O-])cc([N+](=O)[O-])c(Br)c1[N+](=O)[O-]`, the inhibition is inactive: -5.44%.

In the case of `COC(=O)c1cc2c(s1)N=C(c1ccccc1)N(C)P2(=O)N1CCOCC1` (configuration not stated), the inhibition is inactive: -3.72%.

As for `Cc1ccc(OP(=O)(Nc2ccccn2)Oc2ccc(C)cc2)cc1`, the inhibition is inactive: -22.6%.

On to `Cc1ccccc1OP(=O)(Nc1ccccn1)Oc1ccccc1C`, for which the inhibition is inactive: -10.1%.

With `CC(NC(=O)COC(=O)C(O)(c1ccccc1)c1ccccc1)c1ccccc1` (configuration not stated), the inhibition was inactive: -19.5%.

As for `CN(C)C(=O)Oc1noc2ccccc12`, the inhibition was inactive: -22.7%.

Regarding `O=[N+]([O-])c1cc([N+](=O)[O-])c(OC2CCCCC2O)c([N+](=O)[O-])c1` (configuration not stated), the inhibition was inactive: 13.9%.

For the compound `O=c1c2cc([N+](=O)[O-])ccc2[nH]c2c([N+](=O)[O-])cc([N+](=O)[O-])cc12`, the inhibition is inactive: -9.21%.

For the compound `CCCCCOc1ccc(NP(C)(=O)Oc2ccc(Cl)cc2Cl)cc1` (configuration not stated), the inhibition was inactive: -79%.

With `O=P1(Nc2nc3ccc(Cl)cc3s2)COc2ccccc2O1` (configuration not stated), the inhibition is inactive: -25.3%.

With `O=[N+]([O-])c1cc([N+](=O)[O-])c(Nc2ccc(Cl)cc2)c([N+](=O)[O-])c1`, the inhibition was inactive: -12%.

Take `CCOc1ccc(C2=NCC(CBr)S2)cc1` (configuration not stated): the inhibition is inactive: -4.2%.

Consider `CC(C)(C)C(=O)NC(Sc1ccccc1)C(Cl)(Cl)Cl` (configuration not stated), for which the inhibition was inactive: 2.91%.

`CC(C)c1ccc(OP(C)(=O)Nc2ccc(SC(F)(F)F)cc2)cc1` (configuration not stated): the inhibition is inactive: -11.9%.

As to `CCc1cc(O)c([N+](=O)[O-])c(C)c1[N+](=O)[O-]`, the inhibition is inactive: -7.45%.

Regarding `Cc1ccccc1CN(C)C(=O)COC(=O)C(O)(c1ccccc1)c1ccccc1`, the inhibition was inactive: -5.75%.

In the case of `C[C@@H]1C=CCP(=O)(Oc2ccccc2)O1` (some centres not stated), the inhibition was inactive: -57.3%.

`N#C/C(=C\c1ccc(N(CCBr)CCBr)cc1)C(N)=O`: the inhibition was inactive: 12.8%.

On to `COC(=O)C1(C)COP(=O)(NCc2ccccc2)OC1` (configuration not stated), for which the inhibition is inactive: -26.1%.

In the case of `O=C(OC1CN2CCC1CC2)c1ccc([N+](=O)[O-])cc1` (configuration not stated), the inhibition is inactive: -1.4%.

Consider `COc1ccc2c(c1O)-c1c(O)c(OC)cc3c1[C@H](C2)[N+](C)(C)CC3.O=[N+]([O-])c1cc([N+](=O)[O-])c([O-])c([N+](=O)[O-])c1[O-]`, for which the inhibition is inactive: -32.8%.

For `CC(=O)Nc1ccc([As](=O)(O)O)c(O)c1`, the inhibition is inactive: -8.77%.

In the case of `CC(=O)Nc1ccc(Oc2c([N+](=O)[O-])cc([N+](=O)[O-])cc2[N+](=O)[O-])cc1`, the inhibition is inactive: -11.8%.

As to `O=P(Nc1nccs1)(c1ccccc1)c1ccccc1`, the inhibition is inactive: 10.2%.

Consider `CP(=O)(Nc1ccc(SC(F)(F)F)cc1)Oc1ccc(F)cc1` (configuration not stated), for which the inhibition is inactive: -40.3%.

As to `c1nnnn1CCn1cnnn1`, the inhibition was inactive: -18.1%.

As for `CCOP(C)(=S)SCC(=O)NC(C)(CC)C(=O)O` (configuration not stated), the inhibition was inactive: 0.505%.

Consider `CP(=O)(Nc1ccc2c(c1)OCCO2)Oc1ccccc1` (configuration not stated), for which the inhibition was inactive: -1.35%.

Regarding `Cc1ccccc1NP(C)(=O)Nc1ccccc1C`, the inhibition was inactive: -9.15%.

On to `COc1ccc(OP(C)(=O)Nc2cccc(Br)c2)cc1` (configuration not stated), for which the inhibition is inactive: -14.3%.

With `COc1ccc(N)c([N+](=O)[O-])c1[N+](=O)[O-]`, the inhibition was inactive: 15%.

On to `COc1ccc(NP(C)(=O)Oc2ccccc2OC)cc1` (configuration not stated), for which the inhibition is inactive: -6.12%.

Consider `O=P(Nc1nc2ccccc2s1)(c1ccccc1)c1ccccc1`, for which the inhibition was inactive: -24.1%.

`C[C@H]1OP(=O)(Oc2ccccc2)[C@H](O)[C@H](O)[C@H]1N=[N+]=[N-]` (some centres not stated): the inhibition is inactive: 3.05%.

Take `O=[As](O)(c1ccccc1)c1ccc(O)cc1`: the inhibition is inactive: 8.15%.

On to `O=[N+]([O-])c1cc([N+](=O)[O-])c(NCC2CCS(=O)(=O)C2)c([N+](=O)[O-])c1` (configuration not stated), for which the inhibition was inactive: 9.8%.

As for `Cc1cc(-c2cccc3ccccc23)c(C)cn1.O=[N+]([O-])c1cc([N+](=O)[O-])c(O)c([N+](=O)[O-])c1`, the inhibition was inactive: -4.34%.

As to `O=[N+]([O-])c1ccc(O)c(/C=N/Nc2ccc([N+](=O)[O-])cc2[N+](=O)[O-])c1`, the inhibition is inactive: 0.655%.

As to `O=[N+]([O-])c1ncn(CCn2cnc([N+](=O)[O-])n2)n1`, the inhibition was inactive: -6.69%.

As to `O=C(OC1CN2CCC1CC2)c1cccc(Cl)c1` (configuration not stated), the inhibition is inactive: 10.3%.

As to `Cc1c(C(c2ccc3c(c2)OCO3)c2c(C)n(C)n(-c3ccccc3)c2=O)c(=O)n(-c2ccccc2)n1C.O=[N+]([O-])c1cc([N+](=O)[O-])c(O)c([N+](=O)[O-])c1`, the inhibition is inactive: -5.79%.

On to `Nc1ccc([As](=O)(O)c2ccc([N+](=O)[O-])cc2)cc1`, for which the inhibition is inactive: 8.54%.

Regarding `O=P1(N(CCCl)CCCl)OCCCS1` (configuration not stated), the inhibition was inactive: 1.98%.

Turning to `O=[N+]([O-])c1ncn(CCn2ncnc2[N+](=O)[O-])n1`, the inhibition is inactive: -0.562%.

With `CC(C)(C)C(=O)NC(Sc1ccncn1)C(Cl)(Cl)Cl` (configuration not stated), the inhibition was inactive: 6.45%.

For `O=[N+]([O-])c1cccc(NC2=NCC(CBr)S2)c1` (configuration not stated), the inhibition was inactive: 2.96%.

Take `COC(=O)C1(C)COP(=O)(Nc2ccccc2)OC1` (configuration not stated): the inhibition was inactive: -15%.

Consider `CCN(CC)CC(O)COC(=O)C(O)(c1ccccc1)C1CCCCC1` (configuration not stated), for which the inhibition is inactive: 6.82%.

On to `COc1ccc(C2=NCC(CBr)S2)cc1` (configuration not stated), for which the inhibition was inactive: 2.86%.

Regarding `Cc1ccc(NP(=O)(Oc2ccccc2)Oc2ccccc2)nc1`, the inhibition is inactive: -17.6%.

As for `CP(=O)(Oc1ccccc1)N1CCOC1=O` (configuration not stated), the inhibition was inactive: -16.1%.

As to `O=[N+]([O-])c1cc([N+](=O)[O-])c(CCNc2ccccc2)c([N+](=O)[O-])c1`, the inhibition was inactive: -1.8%.

As for `CCc1ccc(OP(C)(=O)Nc2cccnc2)cc1` (configuration not stated), the inhibition was inactive: -12.9%.

In the case of `COc1ccccc1OP(C)(=O)Nc1c(C)n(C)n(-c2ccccc2)c1=O` (configuration not stated), the inhibition is inactive: 2.12%.

Turning to `O=[N+]([O-])c1cccc2n[nH]nc12`, the inhibition was inactive: -6.9%.

For the compound `O=C(OCCCN1CCCC1)C(O)(c1ccccc1)C1CCCCC1` (configuration not stated), the inhibition is inactive: -3.04%.

For `CCN(/C(=N/P(=O)(N1CCOCC1)N1CCOCC1)N1CCOCC1)c1ccc(OC)cc1`, the inhibition was inactive: -5.11%.

As for `Nc1ccc([As](=O)(O)c2ccc(N)cc2)cc1`, the inhibition is inactive: 0.311%.

These data come from PubChem BioAssay AID651582 (Sanford-Burnham Center for Chemical Genomics, 2012).
